This is a sample that favours compounds with a hit; in the whole collection about 4.2% have one here.
ALR H2O2 inh – human ALR oxidase inhibition via reduced H2O2; purified ALR, DTT oxidation, H2O2 HRP-luminol luminescence; P55789; 290,000 tested, 3.8% active; AID 485317; inhibition, % (no concentration beside the values);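 active means mean and each replicate at 75% or more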;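 further: stock transfer was 7.5 nL into about 7.5 µL; 0% = neutral wells and 100% = wells with inactivated enzyme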
MC4R antagonist – human MC4R antagonism in cAMP assay; inhibition, % at 6.5 µM; AID 540295; actives 0.48% (n = 360,000); MC4R-expressing cells, MTII-stimulated cAMP, LANCE TR-FRET; P32245;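 active means inhibition above its plate's cutoff, the mean of tested wells on that plate plus 3 SD, cut at about 29% in these data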;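 further: 0% = Melanotan II alone and 100% = Melanotan II plus saturating MCL0020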
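Material: human MC4R-expressing U2OS cells. Probe or stimulus: Melanotan II challenge. Dosing: 6.5 µM single dose. Times: 30-min compound, 1-h challenge, 1-h detection, room temperature. Technique: TR-FRET with Eu-cAMP and labeled anti-cAMP, 671 nm. Replication: singlicate.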
Yeast UUG start – modulators of yeast start codon fidelity, primary screen, whole organism, S. cerevisiae, single point, plate reader | AID 602363, 2012 | S. cerevisiae UUG-firefly luciferase reporter, luminescence/redox ratio | activity score, % at 18.7 µM | hit rate 0.13% among 350,000;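 active = replicate mean at a twofold rise or more, about +100% in these data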;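 also: firefly luciferase made from a UUG start codon reports start codon fidelity; reporter light over untreated wells divided by growth signal over untreated wells; some hits fall short of that in this replicate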
HDAC3 inh – inhibitors of human histone deacetylase 3; inhibition, % at 8.3 µM; recombinant HDAC3, fluorogenic peptide/trypsin coupled, fluorescence; actives 0.15% (n = 320,000); AID 2718; in the data active means inhibition above about 26%, passing the limit was not always enough; inconclusive means no clear call, values can overlap the other calls
MC4R ag barr – human MC4R agonism via beta-arrestin | P32245 | U2OS MC4R beta-arrestin complementation, luminescence; percent of melanotan II response, DMSO zero | activation, % at 8.9 µM | actives 0.98% (n = 360,000);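 active means activation above a per-plate cutoff, the mean activation of sample wells on that plate plus 3 SD, cut at about 8% in these data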
NALP1 inh – blocks the NALP1 inflammasome reconstituted in yeast; S. cerevisiae NALP1/ASC/caspase-1 growth, X-gal OD620, 72 h; inhibition, % at 10 µM; actives 0.61% (n = 280,000); AID 2071; in the data active means inhibition mostly above about 24%, no sharp cut-off; inactive means mostly below about 32%
MC4R barr ag – human MC4R beta-arrestin agonism confirmation. actives 31% (n = 2,400). activation, % at 8.9 µM. AID 602192. U2OS MC4R beta-arrestin recruitment, luminescence; scaled DMSO 0%, Melanotan II 100%. shares compounds with MC4R ag barr;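 active means mean activation across replicates above the hit cutoff set in the earlier primary screen, cut at about 8% in these data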
MOR-DOR barr ag – activates mu-delta opioid heterodimer, MC4R agonist counter-screen | shares compounds with MC4R ag barr | U2OS PathHunter beta-arrestin, beta-gal luminescence; percent of deltorphin B response, DMSO zero | activation, % at 9.2 µM | actives 5.8% (n = 2,400);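 active means mean activation across replicates exceeds the hit threshold derived in the earlier primary screen, cut at about 18% in these data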;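 further: 100% = deltorphin B at 0.9 µM final and 0% = DMSO alone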
Starred values were filed as active, the others as inactive; ? = inconclusive; . = no result given; ! = not confirmed by another sample.

nr | SMILES | ALR H2O2 inh | MC4R antagonist | Yeast UUG start | HDAC3 inh | MC4R ag barr | NALP1 inh | MC4R barr ag | MOR-DOR barr ag
1 | NC(c1csc(NC(=O)Nc2cccc(Cl)c2)n1)C1CCCCC1 (stereo not drawn) | . | -3 | -13 | . | 13* | . | 20* | 18
2 | NC(c1ccccc1)c1csc(NC(=O)Nc2cccc(Cl)c2)n1 (stereo not drawn) | . | -7 | -9 | . | 12* | . | 13* | 13
3 | O=C(NC1CCCCC1)N[C@H]1CC[C@@H](CC(=O)N2CCOCC2)O[C@@H]1CO | . | . | -13 | . | . | . | . | .
4 | C[C@@H]1CN([C@@H](C)CO)C(=O)c2cccc(NC(=O)c3ccc(-c4nccs4)cc3)c2O[C@@H]1CN(C)CC1CC1 | . | . | 5 | . | . | . | . | .
5 | O=C(C[C@H]1CC[C@@H](NC(=O)NC2CCCCC2)[C@@H](CO)O1)NCc1ccc(Cl)cc1 | . | . | 14 | . | . | . | . | .
6 | COc1cc(SC#N)ccc1N=Cc1c(C)[nH]n(-c2ccc(C)c(C)c2)c1=O | 94* | 4 | -3 | 1 | 12* | 10 | 9.3* | 15
7 | CC(C)CC#Cc1ccc2c(c1)O[C@@H](CN(C)C(=O)C1CCC1)[C@H](C)CN([C@H](C)CO)S2(=O)=O | . | . | 27 | . | . | . | . | .
8 | O=C(Nc1cccc([N+](=O)[O-])c1)c1cccc(C(=O)Nc2cccc([N+](=O)[O-])c2)c1 | . | 8 | -14 | 0 | -1 | 6 | . | .
9 | COc1ccc(C(=O)Nc2cccc([N+](=O)[O-])c2)cc1Br | . | -10 | 3 | 1 | 22* | . | 8.9* | 13
10 | COc1ccc(C(=O)Nc2ccc(OC)c([N+](=O)[O-])c2)cc1Br | 1 | -6 | 1 | 2 | -1 | 2 | . | .
11 | Cc1c(C(=O)Nc2cccc([N+](=O)[O-])c2)csc1-c1ccccc1 | 6 | 3 | -19 | 7 | 14* | 8 | 2 | 10
12 | Cc1ccc(NC(=O)c2csc(-c3ccccc3)c2C)cc1 | . | 5 | -11 | . | 8 | -5 | . | .
13 | O=C(Nc1cccc([N+](=O)[O-])c1)c1ccc(-c2ccccc2)cc1 | 5 | 9 | . | 2 | 39* | 20 | 6 | 25*
14 | C[C@@H]1CN([C@H](C)CO)C(=O)c2cc(NS(=O)(=O)c3ccccc3)ccc2O[C@@H](C)CCCCO[C@@H]1CN(C)Cc1ccc2c(c1)OCO2 | . | . | 12 | . | . | . | . | .
15 | CCN1CCN(Cc2ccc(NC(=O)c3ccc(C)c(NC(=O)c4c[nH]c5cc(C(F)(F)F)ccc5c4=O)c3)cc2C(F)(F)F)CC1 | -5 | -2 | -3 | 0 | 12*! | . | 5 | 78*
16 | Cc1ccc(C(=O)Nc2cccc(C(F)(F)F)c2)cc1NC(=O)c1c[nH]c2cc(C(F)(F)F)ccc2c1=O | -4 | 13 | -11 | -2 | -2 | . | . | .
17 | COc1ccc(NC(=O)Nc2ccc3c(c2)[C@H]2C[C@H](CC(=O)NCc4ccc5c(c4)OCO5)O[C@H](CO)[C@H]2O3)cc1 | . | . | 5 | . | . | . | . | .
18 | CN1c2ccc(C#Cc3cccnc3)cc2[C@H]2[C@H](CCN2S(=O)(=O)c2ccccc2F)[C@@H]1CO | . | . | -2 | . | . | . | . | .
19 | COc1ccc(CC(=O)Nc2ccc(-c3noc(-c4ccccc4OC)n3)cc2)cc1 | -12 | 0 | -10 | 1 | 16* | -7 | 24* | 14
20 | COc1ccc(-c2noc(N3CCC(C(=O)Nc4ccc(OC)c(OC)c4)CC3)n2)cc1 | 0 | 7 | -7 | . | 13* | 12 | 0 | 5
21 | COc1ccc(-c2noc(N3CCC(C(=O)Nc4ccccc4Cl)CC3)n2)cc1 | 0 | 16 | -8 | -9 | 4 | 14 | . | .
22 | COc1ccccc1CC(=O)Nc1ccc(-c2noc(COc3ccc(Br)cc3)n2)cc1 | -1 | 9 | -6 | 5 | 26* | 1 | 8 | 19*
23 | COc1ccccc1CC(=O)Nc1ccc(-c2noc(COc3cccc(C)c3C)n2)cc1 | -2 | 19 | -13 | -1 | -1 | 2 | . | .
24 | COc1ccc(-c2nc(-c3ccc(NC(=O)c4ccc(Br)o4)cc3)no2)cc1OC | -26 | 0 | . | -2 | 45* | 18 | 22* | 46*
25 | CNC(=O)C[C@@H]1CC[C@@H]2[C@H](COc3ccc(NC(=O)NC(C)C)cc3C(=O)N2C)O1 | . | . | -18 | . | . | . | . | .
26 | C/C=C/c1cnc2c(c1)C(=O)N([C@@H](C)CO)C[C@H](C)[C@@H](CN(C)S(=O)(=O)c1ccccc1F)O2 | . | . | -2 | . | . | . | . | .
27 | Cc1ccc(-c2nc3nc4ccccc4nc3n2Cc2ccco2)cc1 | 2 | 13 | -37 | 3 | 4 | 2 | . | .
28 | Clc1ccc(-c2nc3nc4ccccc4nc3n2Cc2ccco2)cc1 | 11 | -1 | 0 | -5 | 20* | -6 | -2 | 4
29 | C/C(=N\N=C1\NC(=O)C(CC(=O)Nc2ccc(C)c(Cl)c2)S1)C(C)(C)C (stereo not drawn) | -1 | 15 | . | ? | 16* | 1 | 5 | 5
30 | Cc1ccc(C(C)C)c(OCC(=O)NNCC(=O)Nc2cccc(F)c2)c1 | -1 | -1 | -15 | 16 | 14* | . | 10* | 6
31 | Cc1ccc(C(C)C)c(OCC(=O)NNC2=CC(=O)CC(C)(C)C2)c1 | 12 | 3 | 1 | -1 | -3 | 3 | . | .
32 | CCC(=O)Nc1ccc2c(c1)C(=O)N(C)[C@@H]1CC[C@@H](CC(=O)NCCOC)O[C@H]1CO2 | . | . | 1 | . | . | . | . | .
33 | Cc1coc2c(C)c3oc(=O)cc(-c4ccccc4)c3cc12 | -9 | 11 | -15 | -2 | 2 | . | . | .
34 | CCCc1cc(=O)oc2c(C)c3occ(C)c3cc12 | 2 | 4 | -24 | 0 | 18* | 18 | 1 | 4
35 | COCC(=O)Nc1ccc2c(c1)C(=O)N(C)[C@H]1CC[C@@H](CC(=O)NC3CCCC3)O[C@H]1CO2 | . | . | -32 | . | . | . | . | .
36 | COc1ccc(C(=O)c2coc3c2C(=O)C(=O)c2ccccc2-3)cc1 | -20 | -3 | -20 | -2 | 17* | 10 | 4 | 6
37 | CO[C@@H]1CN(C)C(=O)c2ccc(NC(=O)NC(C)C)cc2OC[C@H](C)N(CC2CC2)C[C@@H]1C | . | . | -5 | . | . | . | . | .
38 | O=C(CCCCCn1c(=S)[nH]c2ccc(N3CCOCC3)cc2c1=O)NCc1cccc(Cl)c1 | . | 12 | . | . | 9.8* | -6 | 2 | 3
39 | O=C(CCCCCn1c(=S)[nH]c2ccc(N3CCOCC3)cc2c1=O)NCc1ccccc1 | -19 | 23 | 8 | 11 | 12* | 18 | 7 | 3
40 | O=c1c2cc(N3CCOCC3)ccc2[nH]c(=S)n1CCc1ccccc1 | . | 9 | . | -6 | -1 | 3 | . | .
41 | CCCN1C[C@@H](C)[C@@H](OC)CN(C)C(=O)c2ccc(NC(=O)C3CC3)cc2OC[C@@H]1C | . | . | 7 | . | . | . | . | .

Sorted by heavy-atom count (highest first): some entries from above
nr | SMILES | ALR H2O2 inh | MC4R antagonist | Yeast UUG start | HDAC3 inh | MC4R ag barr | NALP1 inh | MC4R barr ag | MOR-DOR barr ag
18 | CN1c2ccc(C#Cc3cccnc3)cc2[C@H]2[C@H](CCN2S(=O)(=O)c2ccccc2F)[C@@H]1CO | . | . | -2 | . | . | . | . | .
41 | CCCN1C[C@@H](C)[C@@H](OC)CN(C)C(=O)c2ccc(NC(=O)C3CC3)cc2OC[C@@H]1C | . | . | 7 | . | . | . | . | .
3 | O=C(NC1CCCCC1)N[C@H]1CC[C@@H](CC(=O)N2CCOCC2)O[C@@H]1CO | . | . | -13 | . | . | . | . | .
11 | Cc1c(C(=O)Nc2cccc([N+](=O)[O-])c2)csc1-c1ccccc1 | 6 | 3 | -19 | 7 | 14* | 8 | 2 | 10
9 | COc1ccc(C(=O)Nc2cccc([N+](=O)[O-])c2)cc1Br | . | -10 | 3 | 1 | 22* | . | 8.9* | 13
